Consider one compound from patent publication US11503826B2, “Low volatility auxin herbicide formulations” (priority 2009, dated 2022).

Each structure is given as a SMILES string.

The data set is described as follows: Aqueous solubility of dicamba acid and dicamba salts. The settings on record: Table 10a; dicamba salt solutions. From the text: The solution was then passed through a 0.45 micron filter and assayed by HPLC for soluble dicamba.

For `NCCO` [MEA], the “Comments (crystal formation)” value is “No crystals, sticky oil”.
